Test results published in ChEMBL document CHEMBL6092226, “Tilting the Scales toward EGFR Mutant Selectivity: Expanding the Scope of Bivalent "Type V" Kinase Inhibitors” (J Med Chem, 2024).

Key:
[1] = test system: Epidermal growth factor receptor (Homo sapiens), P00533 [L858R,T790M]; experiment: Time-dependent irreversible inhibition of GST-tagged EGFR L858R/T790M mutant cytoplasmic domain (669 to 1210 residues) (unknown origin) assessed as maximal rate inactivation constant (Kinact) incubated for 240 mins in presence of ATP by fluorescence based analysis
[2] = target: T1, Epidermal growth factor receptor (Homo sapiens, UniProt P00533); experiment: Time-dependent irreversible inhibition of N-terminal GST-tagged wildtype human EGFR cytoplasmic domain (669 to 1210 residues) extracted from Sf21 insect cells assessed as apparent Kinact/Ki ratio incubated for 240 mins in presence of ATP by fluorescence based analysis; format: cell-based
[3] = test system: Epidermal growth factor receptor (Homo sapiens), P00533 [L858R]; experiment: Time-dependent irreversible inhibition of GST-tagged EGFR L858R mutant cytoplasmic domain (669 to 1210 residues) (unknown origin) assessed as apparent Kinact/Ki ratio incubated for 240 mins in presence of ATP by fluorescence based analysis
[4] = target: T1, Epidermal growth factor receptor; experiment: Time-dependent irreversible inhibition of N-terminal GST-tagged wildtype human EGFR cytoplasmic domain (669 to 1210 residues) extracted from Sf21 insect cells assessed as maximal rate inactivation rate (Kinact) incubated for 240 mins in presence of ATP by fluorescence based analysis; format: cell-based
[5] = test system: Epidermal growth factor receptor (Homo sapiens), P00533 [L858R,T790M]; experiment: Time-dependent irreversible inhibition of GST-tagged EGFR L858R/T790M mutant cytoplasmic domain (669 to 1210 residues) (unknown origin) assessed as apparent Kinact/Ki ratio incubated for 240 mins in presence of ATP by fluorescence based analysis
[6] = test system: Epidermal growth factor receptor (Homo sapiens), P00533 [L858R]; experiment: Time-dependent irreversible inhibition of GST-tagged EGFR L858R mutant cytoplasmic domain (669 to 1210 residues) (unknown origin) assessed as maximal rate inactivation constant (Kinact) incubated for 240 mins in presence of ATP by fluorescence based analysis

SMILES: C=CC(=O)Nc1ccc(OC)c(Nc2cc(-c3[nH]c(SC)nc3-c3cccc(NC(=O)c4ccccc4CN4Cc5ccccc5C4=O)c3)ccn2)c1
- Kinact [1]: 0.001 s⁻¹
- Ratio [2]: 1350 M⁻¹ s⁻¹
- Ratio [3]: 24500 M⁻¹ s⁻¹
- Kinact [4]: 0.001 s⁻¹
- Ratio [5]: 2930 M⁻¹ s⁻¹
- Kinact [6]: 0.006 s⁻¹
